Target: human mGluR5a receptor (Homo sapiens, UniProt P41594)
Test: Cell-based functional Ca2+ mobilization assay (FDSS), potentiation of glutamate EC20 response
Details: for EC50 / pEC50: HEK cells transfected with human mGluR5 (H10H or H12H), in presence of EC20 glutamate; for Emax (%): maximum % effect in concentration-response curve, as percent of response to maximally effective glutamate

Amino acid sequences for entries named in this document (tags omitted). Residues count along the entry.
UniProt P41594, 21-1180 isoform 2 limits assumed: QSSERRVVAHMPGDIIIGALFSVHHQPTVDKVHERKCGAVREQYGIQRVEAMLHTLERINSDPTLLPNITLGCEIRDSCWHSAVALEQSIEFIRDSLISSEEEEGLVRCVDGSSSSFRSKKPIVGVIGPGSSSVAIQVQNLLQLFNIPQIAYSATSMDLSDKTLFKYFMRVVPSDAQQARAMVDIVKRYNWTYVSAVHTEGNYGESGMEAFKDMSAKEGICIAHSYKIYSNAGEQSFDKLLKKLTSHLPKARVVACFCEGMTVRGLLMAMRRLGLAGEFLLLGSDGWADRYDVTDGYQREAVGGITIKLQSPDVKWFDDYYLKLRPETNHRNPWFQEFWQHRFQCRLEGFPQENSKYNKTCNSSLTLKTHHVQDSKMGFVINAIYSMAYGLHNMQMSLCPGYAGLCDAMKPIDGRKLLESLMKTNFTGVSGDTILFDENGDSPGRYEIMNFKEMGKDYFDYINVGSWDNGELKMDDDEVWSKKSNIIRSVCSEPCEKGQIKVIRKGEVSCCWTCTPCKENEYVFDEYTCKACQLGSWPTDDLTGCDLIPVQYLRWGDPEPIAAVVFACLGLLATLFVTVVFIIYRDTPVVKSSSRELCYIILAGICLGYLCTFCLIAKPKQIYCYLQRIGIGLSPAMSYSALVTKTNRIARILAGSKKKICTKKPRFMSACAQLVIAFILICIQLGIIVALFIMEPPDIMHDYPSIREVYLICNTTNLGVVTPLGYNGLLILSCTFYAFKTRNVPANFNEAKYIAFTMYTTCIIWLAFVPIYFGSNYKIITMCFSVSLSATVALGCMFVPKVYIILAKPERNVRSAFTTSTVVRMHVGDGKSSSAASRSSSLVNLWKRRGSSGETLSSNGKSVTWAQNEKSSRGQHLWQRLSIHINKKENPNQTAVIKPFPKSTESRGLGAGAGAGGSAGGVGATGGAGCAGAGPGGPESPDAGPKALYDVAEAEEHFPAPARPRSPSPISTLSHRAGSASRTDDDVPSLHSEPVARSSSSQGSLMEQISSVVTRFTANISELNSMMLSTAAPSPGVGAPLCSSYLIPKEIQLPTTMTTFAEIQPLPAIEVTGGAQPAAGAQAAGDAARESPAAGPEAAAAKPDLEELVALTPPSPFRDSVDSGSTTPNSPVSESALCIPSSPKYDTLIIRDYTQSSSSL

| SMILES | EC50 | pEC50 | Emax (%) |
| --- | --- | --- | --- |
| COc1cncc(N2C(=O)c3cc(COc4ccccc4)nn3C[C@H]2C)n1 | 479 nM | 6.32 | 72% |
| Cc1ncc(N2CCn3nc(COc4ccccc4)cc3C2=O)nc1C | 360 nM | 6.44 | 69% |
| CC1CN(c2ccc(F)cc2)C(=O)c2cc(COc3ccccc3)nn21 (single isomer, unassigned) [Example 130] | 93 nM | 7.03 | 62% |
| CC1CN(c2ccc(F)cn2)C(=O)c2cc(COc3ccccc3)nn21 (single isomer, unassigned) [Example 132] | 257 nM | 6.59 | 43% |

— patent US8592422B2, “Bicyclic triazole and pyrazole lactams as allosteric modulators of mGluR5 receptors” (Vanderbilt University, priority 2010, dated 2013)
